These are literature values, as cited in patent publication US20250368645A1, “BETA CARBOLINE ANALOGUES AS SELECTIVE AND BIASED KAPPA OPIOID RECEPTORS AGONISTS FOR TREATING VARIOUS ASSOCIATED PATHOPHYSIOLOGICAL CONDITIONS” (COUNCIL OF SCIENTIFIC AND INDUSTRIAL RESEARCH, priority 2022, published 2025).

The data set concerns KOR. Particulars: literature background; cited from earlier work.

As to `CN(C(=O)Cc1ccc(Cl)c(Cl)c1)[C@H](CN1CCCC1)c1ccccc1`, the “potency relative to U-50,488” value is 146 fold.
